From patent US20180092866A1, “SUBSTITUTED N-([1,1'-BIPHENYL]-3-YL)-[1,1'-BIPHENYL]-3-CARBOXAMIDE ANALOGS AS INHIBITORS FOR BETA-CATENIN/B-CELL LYMPHOMA 9 INTERACTIONS” (University of Utah Research Foundation, priority 2015, published 2018)

Amino acid sequences for entries named in this document (tags omitted). Residues count along the entry.
UniProt P35222, 138-686: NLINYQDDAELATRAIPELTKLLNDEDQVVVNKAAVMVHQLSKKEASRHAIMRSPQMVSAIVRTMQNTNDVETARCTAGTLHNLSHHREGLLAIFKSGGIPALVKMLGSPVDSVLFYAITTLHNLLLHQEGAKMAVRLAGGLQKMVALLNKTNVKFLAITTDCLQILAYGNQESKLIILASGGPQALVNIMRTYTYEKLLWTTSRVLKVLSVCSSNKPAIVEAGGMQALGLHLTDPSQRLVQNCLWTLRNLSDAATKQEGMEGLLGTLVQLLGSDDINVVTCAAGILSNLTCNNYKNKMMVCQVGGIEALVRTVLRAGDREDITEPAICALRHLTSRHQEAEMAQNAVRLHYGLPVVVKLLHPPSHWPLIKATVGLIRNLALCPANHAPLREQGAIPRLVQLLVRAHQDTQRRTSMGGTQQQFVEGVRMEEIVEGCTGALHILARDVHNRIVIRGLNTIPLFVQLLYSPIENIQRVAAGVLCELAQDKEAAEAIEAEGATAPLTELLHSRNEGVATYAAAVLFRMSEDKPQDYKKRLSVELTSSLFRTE

Biological target: T1, β-catenin/E-cadherin PPIs (Homo sapiens, UniProt P35222)
T1 construct: β-Catenin or its mutants (residues 138-686) was cloned into a pET-28b vector; made in house; host or cells: E. coli BL21 DE3
Test: AlphaScreen selectivity assay, β-catenin/BCL9 versus β-catenin/E-cadherin
Format: binding
Description: Human BCL9 (residues 350-375), N-terminally biotinylated human BCL9 (residues 350-375), N-terminally fluorescein-labeled human BCL9 (residues 350-375), and N-terminally biotinylated human E-cadherin (residues 824-877) were synthesized by InnoPep Inc. (San Diego, Calif., www.innopep.com). All synthesized peptides were purified by HPLC with purity >95%. The structures were validated by LC/MS. The sequences are shown in Table 2 (Ahx, 6-aminohexanoic acid).
The purity of the wild-type and mutant β-catenin proteins was all greater than 95% as determined by the SDS-PAGE gel analysis. Both the wild-type and mutant β-catenin proteins are stable under the testing conditions. Native non-denaturing gel electrophoresis was performed to confirm the homogeneity of the purified proteins. Experiments were performed in white opaque 384-well plates from PerkinElmer, and the samples were read on a Synergy 2 plate reader (Biotek) with a sensitivity setting of 200 using AlphaScreen protocol with excitation at 680 nm and emission at 570 nm. All dilutions were made in 1×assay buffer containing 25 mM HEPES (pH=7.0), 100 mM NaCl, 0.01% Triton X-100, and 0.1% BSA. […] The IC50 value was determined by nonlinear least-square analysis of GraphPad Prism 5.0. […]

## O=C(Nc1ccc(O[C@H]2CCNC2)c(-c2ccc(F)cc2)c1)c1ccc(O[C@H]2CCNC2)c(-c2ccc(F)c(F)c2)c1 [Compound 21, (S)-3-((3′,4′-difluoro-5-((4′-fluoro-6-((S)-pyrrolidin-1-ium-3-yloxy)-[1,1′-biphenyl]-3-yl)carbamoyl)-[1,1′-biphenyl]-2-yl)oxy) pyrrolidin-1-ium chloride]
  selectivity for β-catenin/BCL9 over β-catenin/E-cadherin PPIs: 125 fold
